Patent US6699656B2, “Treatment and prevention of HIV infection by administration of derivatives of human chorionic gonadotropin” (University of Maryland Biotechnology Institute, priority 1996, dated 2004)

How the values were obtained:
SIVmac251 = experiment: SIV infected rhesus monkeys treated with hCG preparation; format: in vivo
Kaposi's sarcoma [1] = experiment: Kaposi's sarcoma response in patients treated with hCG preparations; format: in vivo, human; set-up: key to KS response: PR = Partial Regression; CR = Complete Regression; PD = Progressive Disease; conditions: for apoptosis in KS tumor biopsies of AIDS-KS patients (in situ immunostaining): intralesional 2000 IU 3 times weekly, 2-3 weeks of therapy
KS Y-1 tumors = KS Y-1 tumors induced in immunodeficient mice; format: in vivo; conditions: treatment from one week after tumor cell injection; peptides 10 μg daily 5 days, hCG APL 100 IU s.c. daily 7 days
Procedure: The effects of the peptides on KS tumor cells were also evaluated in vivo in the mouse model. To induce KS tumors in the mice, 1×10^6/ml KS Y-1 cells in 50 μl PBS or saline were injected subcutaneously into immunodeficient mice (beige-XID-BNX mice). After one week, tumors ranged in size from 2×3 mm to 3×5 mm. Methods for detection of apoptosis (from tissue biopsies) were used, as described in Lunardi-Iskandar, Y. et al.(1995, Nature 375:64-68). Briefly, the samples were stained in situ for the presence of cells with DNA fragmentation. Tissue slides from formalin-fixed tumors were treated with terminal deoxynucleotide transferase for extension of DNA ends (hydroxyl 3′) and incorporation of digoxigenin-11-dUTP according to the manufacturer's instructions (Oncor, Gaithersburg, Md.). Anti-digoxigenin antibody conjugated with the enzyme peroxidase allowed detection of apoptotic cells that stain brown whereas viable cells stain blue.

[2] = tested on: hematopoietic progenitor cells; experiment: Hematopoietic progenitor colony assays (CFU-MIX, BFU-e, CFU-GM); format: cell-based; conditions: bone marrow and cord blood; hCG 200 IU/ml, peptides and subunits 100 μg/ml; 10 days
Source text: Hematopoietic progenitor cells (2×10^5 cell/ml) were isolated from normal bone marrow and cord blood and seeded in methylcellulose. […] Aggregates containing more than 50 cells after 10 days of culture were counted as colonies.

KS lesions = conditions: cited from earlier work
KS Y-1 or KS-SLK cells = experiment: KS clonogenic assay; format: cell-based, human; conditions: 2 KS cell lines; peptides 50 nmoles/ml, CR127 2 nmoles/ml; 10 days
Procedure: Briefly, the KS Y-1 cells were obtained from mononuclear cells isolated from pleural effusion of an AIDS patient with KS involving the lungs. After the depletion of T lymphocytes, monocytes/macrophages and fibroblasts by the cytotoxicity method, using monoclonal antibodies against CD2, CD3, CD4, CD8, CD10 and CD14 membrane antigens and baby rabbit complement, the cells were cultured in the absence of exogenous growth factors to select for transformed cells.

CD4+ T cells = experiment: Normal uninfected monkeys treated with hCG preparation; format: in vivo; conditions: 2 uninfected treated animals; from 460 and 470 mm^3; listed as hCG preparation
SV40 promoter = experiment: SV-40 driven CAT construct; format: cell-based; conditions: 250 and 500 IU/ml
Kaposi's Sarcoma [3] = conditions: literature; cited from earlier work
[4] = highest intralesional dose, 2000 IU 3 times weekly
[5] = lowest intralesional dose, 250 IU 3 times weekly

## hCG APL: commercial preparation of native hCG (APL, Wyeth Ayerst)
SIVmac251; 3 SIV infected monkeys, 3,000 IU 2 times weekly from 3 weeks after inoculation
  Weight gain: 2 to 4 kg
SIVmac251; 3,000 IU 2 times weekly, maintained over 7 months
  SIV p27 antigen in plasma: marked decrease
SIVmac251; followed for 7 months
  disease or SIV resistance to the hCG preparation: no evidence of disease or SIV resistance
Kaposi's sarcoma [1]; listed as APL
  KS response: PD (3×) and CR and Stable (5×) and PR (2×)
KS Y-1 tumors
  effect on KS Y-1 tumors in mice (cell death, thin sections): comparable
[2]
  growth of hematopoietic progenitors (colonies): directly promoted
KS lesions; [4]
  response of treated KS lesions: 83%
KS lesions; [5]
  response of treated KS lesions: 8%

## hCG Pregnyl: commercial native hCG preparation, Pregnyl (Organon)
Kaposi's sarcoma [1]
  KS response: PR (5×) and CR (3×) and Stable (2×) and PD (4×) and PD (Died) (2×)

## recombinant α-chain: purified recombinant α-chain of hCG [reference compound]
KS Y-1 or KS-SLK cells
  anti-KS effect in clonogenic assays (number of colonies): no anti-KS effect

## CR127: highly purified native hCG heterodimer supplied by the National Hormone and Pituitary Program, NIH [reference compound]
KS Y-1 or KS-SLK cells
  anti-KS effect in clonogenic assays (number of colonies): inactive

## hCG: human chorionic gonadotropin preparation, brand not stated at the place (or both Pregnyl and APL, 'PA')
CD4+ T cells
  CD4+ T cells after treatment: 520 mm^3 and 650 mm^3
Kaposi's sarcoma [1]; at week 3 of intralesional therapy
  KS lesions, patient PH-VE: regression of KS lesions
Kaposi's sarcoma [1]; followed by stabilization
  decline of pulmonary KS, patient PH-RF: 75%
Kaposi's sarcoma [1]; hCG alone
  cutaneous and pulmonary KS, patient PO-GE: complete response
Kaposi's sarcoma [1]; higher dose hCG, 30,000 IU/week
  recurrent KS, patient PH-VE: responded; also recorded: KS lesion regression
Kaposi's sarcoma [1]; human, in vivo
  KS response, patients PH-JJ, PH-MH, PH-LG, PH-JPV, PG-16, PG-18: partial responses
  KS response, patients PO-SC and PH-LFA: did not respond to hCG or their disease progressed on therapy
Kaposi's sarcoma [1]; human, in vivo, po
  pulmonary KS, patient PO-DU: stabilization of pulmonary disease
Kaposi's sarcoma [1]
  apoptosis in KS tumor biopsies of AIDS-KS patients (in situ immunostaining): evidence of apoptosis and/or, histologically, complete absence of the KS tumor
Kaposi's sarcoma [1]; listed as hCG preparation
  apoptosis in KS tumor biopsies of AIDS-KS patients (in situ immunostaining): evidence of apoptosis in all cells
  KS response: PR and CR
Kaposi's sarcoma [1]; of 10 patients with advanced disease treated systemically, 15,000 to 30,000 IU
  patients with marked responses: 6
Kaposi's sarcoma [1]; of 15 protocol patients from the Belgium trial
  additional patients with KS responses by ACTGO criteria: 4
Kaposi's sarcoma [1]; patients PO-DU, PO-GE, PH-JPV, PH-RF, systemic 15,000 to 30,000 IU
  regression of visceral KS: ≥ 75%
Kaposi's sarcoma [1]; pulmonary and gastric KS, after one month of hCG alone
  pulmonary function test, patient PH-JPV: dramatically improved
Kaposi's sarcoma [1]; stabilization of disease at week 6
  week at which complete regression was recorded, patient PH-GA: 14 week
Kaposi's sarcoma [1]; systemic hCG
  KS response, patients PG2 and PG5: exhibited a KS response
Kaposi's sarcoma [1]; systemic protocol 35,000 IU/week, followed for more than 4 months
  patients with substantial anti-KS effect / regression of KS: 4 of the 5 and 4 of 5
SV40 promoter
  transcription of the SV-40 driven CAT construct: no effect
Kaposi's Sarcoma [3]
  efficacy in the treatment of Kaposi's Sarcoma: efficacious
KS lesions; [4]
  response of treated KS lesions: 83%
KS lesions; [5]
  response of treated KS lesions: 16%

Several values for one entry are separate records, joined by “and”; a condition that tells them apart may be missing. Identical values can stand only once. Entries after “also recorded” stand apart in the source; their conditions may differ. Like-named read-outs stand apart in the source and are kept apart here.
